# AlphaSeq binding of Ab-95 light chain variants to a spike HR2 peptide

Data: MIT Lincoln Laboratory AlphaSeq set, Engelhart et al. 2022, doi:10.1038/s41597-022-01779-4, as distributed in FLAb.

Antigen: PDVDLGDISGINAS, a 14-residue peptide of the SARS-CoV-2 spike HR2 region.

Parent: Ab-95, a human scFv built as VH, a (GGGGS)3 linker, VL. Only the CDRs of the light chain vary.
VH: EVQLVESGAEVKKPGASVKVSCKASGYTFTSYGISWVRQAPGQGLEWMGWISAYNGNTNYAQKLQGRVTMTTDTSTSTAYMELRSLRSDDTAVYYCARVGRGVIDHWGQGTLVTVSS
VL: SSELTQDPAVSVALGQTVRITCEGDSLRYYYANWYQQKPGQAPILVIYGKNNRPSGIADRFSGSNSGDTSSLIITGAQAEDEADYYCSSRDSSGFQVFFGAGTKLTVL

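The starting antibody came from a phage panning campaign against this peptide. Variants in AAYL52 differ from the parent at up to three CDR positions; double and triple changes were sampled at random. Affinity was read by AlphaSeq, a pooled yeast mating assay with surface-displayed partners. After mating in shaken culture at 30 °C for 16 h, diploids were selected and their barcode pairs sequenced. Scores were corrected for input abundance and mapped to Kd with protein pairs of known affinity run in the same pool. Each pool was mated in three replicate cultures.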

Changes read parent residue, position, new residue, counted from the first residue of the VL shown. Every variant below is changed at E23 of the VL (sequential numbering). The read-out is the apparent dissociation constant on a log10 scale (nM): the lower, the stronger. "ND" marks a missing value. The strain was present, yet no cells mated with the target were sequenced in that replicate, which points to weak or no binding. As a blank, each scFv also met three strains without target: over library AAYL52, 28% of these pairings were detected, typically at 3.91 and seldom below 2.90.

| changes | replicates, log10 nM |
|---|---|
| E23T+S26I+Y31P | 3.99 / 2.82 / 3.19 |
| E23D+S89P+F98R | 2.70 / 2.80 / 2.71 |
| E23Y+Y30W+Q96R | 3.26 / ND / ND |
| E23W+Y31T | 3.28 / 3.63 / 2.89 |
| E23T+R28V | 2.48 / 2.13 / 2.21 |
| E23W+S89Q | ND / 3.24 / ND |
| E23N+G24S+Q96S | 3.20 / 3.45 / ND |
| E23T | 1.66 / 1.66 / 0.99 |
| E23M+V97I | 3.12 / 2.45 / 2.20 |
| E23L+P54S+V97Q | 2.79 / 3.20 / 2.03 |
| E23A+L27S+S89H | ND / ND / ND |
| E23H+R28A+A32N | 2.90 / 2.56 / 2.81 |
| E23K+S89H+G94M | ND / 3.48 / ND |
| E23L+F98P | 2.68 / 2.37 / 2.32 |
| E23V+S55H+F98Q | 3.50 / 3.64 / 3.55 |
| E23L+Y30H+Q96T | 2.73 / 2.47 / 2.98 |
| E23C+G24K+S88N | ND / ND / 2.27 |
| E23R+S89P+D91F | 2.31 / 2.42 / 2.55 |
| E23C+S88E+F95A | ND / 3.27 / 2.17 |
| E23K+N33V+V97D | ND / 3.84 / 3.51 |
| E23M+S55R+V97F | 2.88 / 3.80 / 2.94 |
| E23H+A32T+S92Q | 1.28 / 1.22 / 0.75 |
| E23V | 2.56 / 2.30 / 1.82 |
| E23F+N51P+Q96Y | 4.13 / ND / ND |
| E23Q+G24P+R28H | 4.80 / 4.75 / 4.86 |
| E23T+S26M+F98H | 3.98 / 5.40 / 3.93 |
| E23N+Y29A+S55N | 2.04 / 1.70 / 1.59 |
| E23T+D25V | 2.24 / 2.66 / 2.01 |
| E23C+D91H+S93R | ND / 5.54 / ND |
| E23H+G24L+N52G | 3.91 / 2.30 / 2.65 |

Extract of 2 entries:

changes	replicates, log10 nM
E23T+S26M+F98H	3.98 / 5.40 / 3.93
E23Q+G24P+R28H	4.80 / 4.75 / 4.86